Measured values reported in patent US20080132417A1, “Molecular Basis For The Identification Of Chemotherapy Resistance In Human Tumors And The Treatment Thereof” (THE UAB RESEARCH FOUNDATION, priority 2004, published 2008).

Experiments:
SW948CPTH cells = assay: Reduction of CPT-11 resistance of SW948CPTH cells by C225 or siXRCC1 (cell proliferation assay); assay type: cell-based, human; conditions: C225 5 μg/ml 24 h prior to CPT-11, p<0.01
Procedure: The data are the average ±SE of two to four independent experiments performed in quadruplicate. p-values were determined by Student's t-test.
Standard cell proliferation assays were done in 24-well tissue culture plates. […] Following a 24 h incubation at 37° C., the cell culture media from the oligo and siXRCC1 groups were removed; the cells were washed with 1 ml PBS, and culture medium was added to the cells. Serial dilutions of CPT-11 were added to each well in quadruplicate. After a 24 h incubation at 37° C., the culture medium was removed from all groups, the cells washed with PBS and drug-free medium added to the cells.

[1] = tested on: XRCC1 protein in SW948 cells; assay: Immunoblot of XRCC1 protein in SW948 cells after cetuximab; assay type: cell-based, human; conditions: cetuximab 5 μg/ml, lysates at 0, 4, 24, 48, 72 h
Procedure: Cell lysates were collected at 0, 4, 24, 48 and 72 h.
Cetuximab was added at time 0 at a concentration of 5 μg/ml. The cells were incubated at 37° C., and cell lysates were collected at each time point. For the detection of XRCC1, 20 μg protein was loaded per lane on a 10% SDS-PAGE. The proteins were separated by electrophoresis and then transferred to a nylon membrane. The blot was probed with anti-XRCC1 (NeoMarkers) followed by anti-mouse-HRP. The blots were developed with chemiluminescence and scanned using UN-SCAN-IT software (FIGS. 7 and 8).

C225: cetuximab (IMC-C225) was tested, and the “decrease of CPT-11 IC50 as compared to the untreated group” value (SW948CPTH cells) was 26%, the “XRCC1 protein levels in SW948 cells” value [1] was “no observable change” and the “XRCC1 protein levels in SW948 cells” value ([1]; listed as Cetuximab) was “no change”.
